Experimental findings from patent EP0450097B1, “BENZOHETEROCYCLIC COMPOUNDS” (OTSUKA PHARMACEUTICAL CO., LTD., priority 1989, dated 1991) are described below.

The chains behind the UniProt entries cited, without tags or fusion partners.
UniProt Q00788, whole entry: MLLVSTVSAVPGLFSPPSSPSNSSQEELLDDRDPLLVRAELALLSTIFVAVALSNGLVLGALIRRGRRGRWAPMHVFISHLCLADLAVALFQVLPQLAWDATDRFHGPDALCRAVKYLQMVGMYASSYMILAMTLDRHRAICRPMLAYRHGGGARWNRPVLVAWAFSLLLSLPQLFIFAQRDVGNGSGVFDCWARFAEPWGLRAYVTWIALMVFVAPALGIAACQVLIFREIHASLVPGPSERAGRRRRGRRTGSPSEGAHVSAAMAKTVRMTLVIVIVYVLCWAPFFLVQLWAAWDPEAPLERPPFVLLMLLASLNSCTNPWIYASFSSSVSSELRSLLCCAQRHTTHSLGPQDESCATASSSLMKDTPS

SMILES strings stand for the structures.

In the experiment the target is V₂ receptor (Rattus norvegicus, UniProt Q00788). Description: V₂ receptor binding assay ([³H]-Arg-vasopressin, rat kidney plasma membrane preparations). The following applies: 4°C for 3 hours.

Consider `COC1CCCN(C(=O)c2ccc(NC(=O)c3ccc(Cl)cc3Cl)cc2)c2ccccc21` (stereo not shown), for which the IC50 (usually the midpoint of a concentration-inhibition curve) turned out to be 4 nM.

With `CCOC(=O)COC1CCCN(C(=O)c2ccc(NC(=O)c3ccc(Cl)cc3Cl)cc2)c2ccccc21` (stereo not shown), the IC50 was 63 nM.

On to `COCC(O)CN(C)C1CCCN(C(=O)c2ccc(NC(=O)c3ccccc3C)cc2)c2ccccc21` (stereo not shown), for which the concentration for half-maximal inhibition (IC50) was 59 nM.

For `O=C(COc1ccc2ccccc2c1)Nc1ccc(C(=O)N2CCCCc3ccccc32)cc1`, the half-maximal inhibitory concentration (IC50) was 490 nM.

The molecule `CC(=O)NCCCN(CC(=O)Nc1ccc(C(=O)N2CCCCc3ccccc32)cc1)c1ccccc1` registered an IC50 of 290 nM.

Regarding `Cc1ccccc1C(=O)Nc1ccc(C(=O)N2CCCC(=NOS(=O)(=O)O)c3ccccc32)c(Cl)c1`, the IC50 (tested form: K salt) amounted to 400 nM.

Regarding `COc1cccc(C(=O)Nc2ccc(C(=O)N3CCCC(N(C)C)c4ccccc43)cc2)c1` (stereo not shown), the half-inhibitory concentration (IC50) is 32 nM.

Molecule `Cc1ccccc1C(=O)Nc1ccc(C(=O)N2CCCC(NCCN(C)C)c3ccccc32)c(Cl)c1` (stereo not shown) showed a half-maximal inhibitory concentration (IC50) of 6 nM.

For `O=C(Nc1ccc(C(=O)N2CCCc3cc(F)ccc32)cc1)c1cc(Cl)cc(Cl)c1`, the 50% inhibitory concentration (IC50) was found to be 100 nM.

On to `O=C(O)COc1ccccc1C(=O)Nc1ccc(C(=O)N2CCCCc3ccccc32)cc1`, for which the IC50 is 550 nM.

On to `CC(C)(C)NCC(=O)Nc1ccc(C(=O)N2CCCCc3ccccc32)cc1`, for which the half-maximal inhibitory concentration (IC50) amounted to 600 nM.

With `COc1cc(C(=O)N2CCCC(N(C)C)c3ccccc32)ccc1NC(=O)c1ccccc1Cl` (stereo not shown), the concentration for half-maximal inhibition (IC50) worked out at 48 nM.

Take `CN1CCN(C(=O)c2ccc(NC(=O)c3cc(Cl)cc(Cl)c3)cc2)c2ccccc2C1`: where the note is “tested form: HCl”, the IC50 amounted to 70 nM.

As for `Cc1ccccc1C(=O)Nc1ccc(C(=O)N2CCCC(N(C)CC(=O)O)c3ccccc32)cc1` (stereo not shown), the concentration for half-maximal inhibition (IC50) (tested form: K salt) was determined as 250 nM.

Molecule `Cc1ccccc1NC(=O)Nc1ccc(C(=O)N2CCCCc3ccccc32)cc1` yielded a half-maximal inhibitory concentration (IC50) of 62 nM.

Consider `O=C(c1ccc(NS(=O)(=O)c2ccccc2Cl)cc1)N1CCCCc2ccccc21`, for which the concentration for half-maximal inhibition (IC50) came to 990 nM.

As to `Cc1ccccc1C(=O)Nc1ccc(C(=O)N2CCCC(N(C)C)c3ccccc32)cc1O` (stereo not shown), the half-maximal inhibitory concentration (IC50) was 83 nM.

In turn, `CN(C)C1CCN(C(=O)c2ccc(NC(=O)c3ccccc3Cl)cc2)c2ccccc2C1` (stereo not shown) returned an IC50 of 140 nM.

Take `NCc1ccc(NCC(=O)Nc2ccc(C(=O)N3CCCCc4ccccc43)cc2)cc1`: the 50% inhibitory concentration (IC50) was determined as 230 nM.

`CC(=O)Nc1ccc(C(=O)Nc2ccc(C(=O)N3CCCCc4ccccc43)cc2)c(Cl)c1`: the IC50 amounted to 450 nM.

The molecule `CCOC(=O)COC1CCCN(C(=O)c2ccc(NC(=O)c3ccccc3C)cc2)c2ccccc21` (stereo not shown) had an IC50 of 20 nM.

As to `COc1cc(C(=O)N2CCCC(N(C)C)c3ccccc32)ccc1NC(=O)c1ccccc1C` (stereo not shown), the IC50 worked out at 48 nM.

The molecule `CCN(CC)CC(O)CN(C)C1CCCN(C(=O)c2ccc(NC(=O)c3ccccc3C)cc2)c2ccccc21` (stereo not shown) registered a 50% inhibitory concentration (IC50) of 27 nM.

The molecule `CC(C)N1CCN(C(=O)c2ccc(NC(=O)c3cc(Cl)cc(Cl)c3)cc2)c2ccccc2C1` came in with an IC50 of 180 nM.

`CN1CCN(C(=O)c2ccc(NC(=O)c3cccc(Cl)c3)cc2)c2ccccc2C1` registered an IC50 of 110 nM.

`CNCC1(O)CCCN(C(=O)c2ccc(NC(=O)c3ccccc3C)cc2)c2ccccc21` (stereo not shown) yielded an IC50 of 400 nM.

Molecule `CC(=O)OCCCN(C)C1CCCN(C(=O)c2ccc(NC(=O)c3ccccc3C)cc2)c2ccccc21` (stereo not shown) returned an IC50 of 46 nM.

As for `Cc1ccccc1C(=O)Nc1ccc(C(=O)N2CCCN(C)Cc3ccccc32)cc1`, the IC50 was found to be 410 nM.

Turning to `Cc1ccccc1C(=O)Nc1ccc(C(=O)N2CCCC(NC3CC3)c3ccccc32)c(Cl)c1` (stereo not shown), the concentration for half-maximal inhibition (IC50) was found to be 19 nM.

Molecule `CN1CCN(C(=O)c2ccc(NC(=O)c3cc(Cl)cc(Cl)c3Cl)cc2)c2ccccc2C1` came in with a half-inhibitory concentration (IC50) of 68 nM.

On to `Cc1ccccc1C(=O)Nc1ccc(C(=O)N2CCCSc3ccccc32)cc1`, for which the IC50 was found to be 70 nM.

`COc1cc(C(=O)N2CCC(N(C)C)c3ccccc32)ccc1NC(=O)c1ccccc1C` (stereo not shown) displayed a half-inhibitory concentration (IC50) of 22 nM.

`CCN(C)C1CCN(C(=O)c2ccc(NC(=O)c3cc(Cl)cc(Cl)c3)cc2)c2ccccc21` (stereo not shown) displayed an IC50 of 27 nM.

The molecule `Cc1cc(C(=O)N2CCN(C)Cc3ccccc32)ccc1NC(=O)c1ccc(Cl)cc1Cl` came in with an IC50 of 340 nM.

Take `O=C(CN1C(=O)c2ccccc2C1=O)Nc1ccc(C(=O)N2CCCCc3ccccc32)cc1`: the half-maximal inhibitory concentration (IC50) was found to be 720 nM.

Molecule `O=C(Nc1ccc(C(=O)N2CCCC(=NO)c3ccccc32)cc1)c1cc(Cl)cc(Cl)c1` yielded an IC50 of 39 nM.

Regarding `Cc1ccccc1NC(=O)c1ccc(C(=O)N2CCCC(N(C)C)c3ccccc32)cc1` (stereo not shown), the IC50 came to 20 nM.

`O=C(O)COC1CCCN(C(=O)c2ccc(NC(=O)c3ccccc3Cl)cc2)c2ccccc21` (stereo not shown): the IC50 worked out at 59 nM.

The molecule `Cc1ccccc1C(=O)Nc1ccc(C(=O)N2CCCC(O)c3c(C)cccc32)c(Cl)c1` (stereo not shown) displayed a 50% inhibitory concentration (IC50) of 22 nM.

Regarding `C=CCNC1CCN(C(=O)c2ccc(NC(=O)c3cc(Cl)cc(Cl)c3)cc2)c2ccccc2C1` (stereo not shown), the concentration for half-maximal inhibition (IC50) was determined as 28 nM.

`Nc1ccc(C(=O)Nc2ccc(C(=O)N3CCCCc4ccccc43)cc2)c(Cl)c1` displayed a half-inhibitory concentration (IC50) of 81 nM.

As for `O=C(Nc1ccc(C(=O)N2CCCCc3ccccc32)cc1)c1ccncc1`, the IC50 stood at 290 nM.

In the case of `O=C(Nc1ccc(C(=O)N2CCOCc3ccccc32)cc1)C1CCCCC1`, the IC50 was 330 nM.

`CNC1(CO)CCCN(C(=O)c2ccc(NC(=O)c3ccccc3C)cc2)c2ccccc21` (stereo not shown) registered an IC50 of 170 nM.

`O=C(Nc1ccc(C(=O)N2CCCCc3ccccc32)cc1)c1ccc([N+](=O)[O-])cc1Cl` showed a concentration for half-maximal inhibition (IC50) of 90 nM.

Turning to `CN(C)CC1CCN(C(=O)c2ccc(NC(=O)c3cc(Cl)cc(Cl)c3)cc2)c2ccccc21` (stereo not shown), the IC50 was determined as 56 nM.

Regarding `CC(=O)OC1CCCN(C(=O)c2ccc(NC(=O)c3ccccc3Cl)cc2)c2ccccc21` (stereo not shown), the IC50 came to 63 nM.

`O=C(c1ccc(N(C(=O)c2cc(Cl)cc(Cl)c2)C(=O)c2cc(Cl)cc(Cl)c2)cc1)N1CCCc2cc(F)ccc21` had a concentration for half-maximal inhibition (IC50) of 100 nM.

`Cc1ccccc1C(=O)Nc1ccc(C(=O)N2CCCC(N(C)CCCO)c3ccccc32)cc1` (stereo not shown) yielded an IC50 of 30 nM.

Molecule `COc1cc(C(=O)N2CCCC(N(C)C)c3ccccc32)ccc1NC(=O)c1cc(Cl)cc(Cl)c1Cl` (stereo not shown) returned an IC50 of 150 nM.

The molecule `CC(=O)OC1CCN(C(=O)c2ccc(NC(=O)c3ccccc3C)cc2)c2ccccc21` (stereo not shown) registered a half-maximal inhibitory concentration (IC50) of 180 nM.

Regarding `CNC1CCCN(C(=O)c2ccc(NC(=O)c3ccccc3C)cc2Cl)c2ccccc21` (single isomer, unassigned), the IC50 came to 5 nM.

As for `CCOc1cc(C(=O)N2CCCC(N(C)C)c3ccccc32)ccc1NC(=O)c1ccccc1C` (stereo not shown), the IC50 is 98 nM.

The molecule `CCN1CCN(C(=O)c2ccc(NC(=O)c3cccc(C)c3C)cc2)c2ccccc2C1` yielded a half-maximal inhibitory concentration (IC50) of 81 nM.

With `Cc1ccccc1C(=O)Nc1ccc(C(=O)N2CCSc3ccccc32)cc1`, the IC50 was 380 nM.

With `Cc1ccccc1C(=O)Nc1ccc(C(=O)N2CCCC(N(C)C(=O)c3ccccc3)c3ccccc32)cc1` (stereo not shown), the IC50 was found to be 250 nM.

`O=C(Nc1ccc(C(=O)N2CCCC(N3CCOCC3)c3ccccc32)cc1)c1ccccc1Cl` (stereo not shown) registered an IC50 of 120 nM.

`Cc1ccccc1C(=O)Nc1ccc(C(=O)N2CCCC(N(C)C)c3ccccc32)c(Cl)c1` (stereo not shown) displayed an IC50 of 18 nM.
